Data set [1] relates to O=C(O)[C@H]1CCCN1. Description: purified protein. Particulars: 0.2 M NaOAc pH 6, 37 C, 10-160 mM substrate, PLP-independent.
Data set [2] deals with O=C(O)[C@@H]1CCCN1. Description: purified protein. As to conditions: 0.2 M NaOAc pH 6, 37 C, 10-160 mM substrate, PLP-independent.

Usually Km stands for the substrate concentration at which the rate is half of its maximum. On to CdPRAC (Clostridioides difficile), for which the values for the Michaelis-Menten constant (Km) in data set [1] and in data set [2] were 46.7 mM and 60.2 mM, respectively.

Values taken from article PMC1964878.
